# ClpP mod: qHTS Assay for Activators of ClpP. Potency, µM (series often up to 57.5 µM), inactives show at the highest dose activity change, negative = active. ATP-dependent Clp protease proteolytic subunit (Bacillus subtilis (strain 168)), P80244. purified B. subtilis ClpP, FRET peptide cleavage, 20 min. actives 1.9% (n = 340,000); active = well fitted falling curve with a large enough effect; inconclusive = small, poorly fitted or top-dose-only effect; inactive = no such curve, though single readings can be large or run the other way; also: potency is read from the fitted curve at half-maximal effect; the source files actives as falling curves though it sought activators and does not explain the sign; nearly all actives have a fitted effect of over 65% in size
#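 FRET quenching reversal measured ClpP activation: 10 microg/mL B. subtilis ClpP at pH 8 with the FRET-FV decapeptide, read at 430 nm after 320 nm excitation. The 20-min minus 0-min signal was scaled between DMSO/no-enzyme wells and ADEP (5.8 microM final).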
# Nrf2 activator: activators of Nrf2 (ARE) signaling | AREc32 ARE-luciferase reporter (MCF7-derived line), luminescence, 24 h | Potency, µM (doses to about 46.1 µM), for inactives: top-dose activation, actives largely listed as activators | actives 0.31% (n = 410,000) | AID 624171; also: potency is read from the fitted curve at half-maximal effect; % of control where 0% means no effect; nearly all actives have a fitted effect of over 65% in size
#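 Reporter line AREc32 (ARE-Fluc), seeded overnight in OPTI-MEM with 5% FBS; compound pin-transferred, 24 hr at 37 deg C, 5% CO2; luminescent read-out.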
# Nrf2 inh: blocks Nrf2 signaling; A549 ARE-Fluc reporter, luciferase luminescence, 18-24 h; Potency, µM (highest dose often 46 µM), without a hit: at the top dose activity change, negative = inhibition, actives largely listed as inhibitors; actives 2.1% (n = 360,000); AID 504444; also: potency is read from the fitted curve at half-maximal effect; % is scaled to controls: 0 for no effect and ±100 for the full control effect; nearly all actives have a fitted effect of over 60% in size
#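 In this cell-based qHTS, ARE-driven firefly luciferase in A549 cells reports Nrf2 activity; the luminescent signal after BugLite lysis is the measured value, with a prior CellTiter-Fluor read for cell health.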
# miR-21 reporter: miR-21 reporter, rising signal; HeLa miR-21 FLuc reporter, luciferase, 48 h; Potency, µM (top dose mostly 38.3 µM), without a hit: at the highest dose reporter change, positive = more light; 340,000 tested, under 10 active; active = well fitted rising curve with a large enough effect; inconclusive = small, poorly fitted or top-dose-only effect; inactive = no such curve, though single readings can be large or run the other way;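 further: % of control where 0% means no effect; miR-21 action dims this reporter so a rising signal means less miR-21 action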
#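 HeLa cells stably expressing CMV-driven firefly luciferase with a downstream miR-21 binding sequence, endogenously expressing miR-21, were treated with titrations (up to about 40uM final) for 48 hours at 37 degree Celsius. Luciferase luminescence was read after lysis.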
# TCR act: activators of T cell receptors | Potency, µM (titrated, usually from 9.22 µM), inactives show at the top dose activation of IL-2 secretion, actives largely listed as activators | 330,000 tested, under 10 active | primary human leukocytes, anti-CD3, IL-2 HTRF, 48 h; also: % of control where 0% means no effect
#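 IL-2 release read by HTRF sandwich (Eu cryptate donor, d2 acceptor, 665 nm emission) after 48 hr exposure of primary human leukocytes to compound together with anti-CD3 beads in the absence of co-stimulatory signals.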
# A549 viability: kills or reduces viability of A549 cells in Nrf2 counter-screen. AID 504648. Potency, µM (top dose mostly 46 µM), without a hit: at the highest dose activity change, negative = cytotoxicity, hits mostly inhibitors. A549 ARE-Fluc cells, CellTiter-Fluor viability, 18-24 h. actives 0.16% (n = 390,000); also: potency is read from the fitted curve at half-maximal effect; % is scaled to controls: 0 for no effect and ±100 for the full control effect
#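 A549 ARE_Fluc cells in 5% FBS OPTI-MEM were exposed to compounds in concentration-response for 18-24 h at 37 deg C. Viability was read by CellTiter-Fluor fluorescence (Ex 405/Em 525) after 30 min, before the luciferase read.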
# An asterisk follows results filed as active; ? = inconclusive; . = not tested or not shown; [ ] = another dose, or the depositor's remark. A selection: hits, their analogues and other compounds. The true share with any hit is near 3.7%. Unless noted, calls follow the shape of the dose curve; as a rule, active = well fitted curve in the direction sought with a large enough effect; inconclusive = small, poorly fitted or top-dose-only effect, or another doubt; inactive = no such curve, though single readings can be large; an effect the other way counts as inactive or inconclusive.
# Abbreviations – A = ClpP mod; B = Nrf2 activator; C = Nrf2 inh; D = miR-21 reporter; E = TCR act; F = A549 viability
Compound: Cc1cc(C)n(-c2ccc(C(=O)N3CCN(S(=O)(=O)c4ccc(C(C)C)cc4)CC3)cc2)n1
  A = -5%	B = 0%	C = 23µM*	D = .	E = -1%	F = -17%
Compound: O=C(CNC(=O)c1ccccc1F)OCn1nnc2ccccc2c1=O
  A = -1%	B = 0%	C = -6%	D = .	E = -11%	F = 1%
Compound: CCC1CN(C(=O)NCc2ccc(F)cc2)c2cc(C)ccc2O1 (stereo unspecified)
  A = 1%	B = 0%	C = 21µM*	D = ?	E = 5%	F = ?
Compound: CCC(CC)COC(=O)C1=C(C)NC(=O)NC1c1ccccc1Br (stereo unspecified)
  A = 0%	B = 1%	C = ?	D = 14%	E = .	F = -2%
Compound: S=C1NC2=C(CCCC2=C2SCCS2)C(c2ccccc2)N1 (stereo unspecified)
  A = .	B = 22µM*	C = ?	D = -7%	E = -7%	F = 1%
Compound: Fc1ccc(/C=C2\CCCC3=C2NC(=S)NC3c2ccc(F)cc2)cc1 (stereo unspecified)
  A = .	B = .	C = .	D = -2%	E = 6%[46.1 µM]	F = .
Compound: Cc1ccc(NC(=O)c2cc3c(=O)n(Cc4ccco4)ccc3nc2C)cc1C
  A = -4%	B = 22%	C = ?	D = 15%	E = .	F = 15%
Compound: COc1ccc(CNC(=O)c2cc3c(=O)n(Cc4cccs4)ccc3nc2C)cc1
  A = 14µM*	B = 7%	C = ?	D = 29%	E = .	F = 7%
Compound: Cc1nc2ccn(Cc3ccco3)c(=O)c2cc1C(=O)Nc1ccc(F)cc1
  A = -13%	B = 13µM*	C = -14%	D = 17%	E = .	F = 5%
Compound: COc1ccc(CNC(=O)c2cc3c(=O)n(Cc4cccnc4)ccc3nc2C)cc1
  A = 25µM*	B = 0%	C = -27%	D = -1%	E = .	F = 0%
Compound: Cc1ccc(CNC(=O)c2cc3c(=O)n(Cc4cccnc4)ccc3nc2C)cc1
  A = 28µM*	B = 1%	C = -22%	D = 10%	E = .	F = 2%
Compound: COc1cccc(CNC(=O)c2cc3c(=O)n(Cc4cccnc4)ccc3nc2C)c1
  A = ?	B = 6%	C = ?	D = 27%	E = .	F = 5%
Compound: Cc1nc2ccn(Cc3cccs3)c(=O)c2cc1C(=O)NCc1ccccc1
  A = 4%	B = 6%	C = -12%	D = 22%	E = .	F = 11%
Compound: CN(CC(=O)Nc1ccc(Cl)c(C(F)(F)F)c1)C(=O)c1cn2ccccc2n1
  A = -9%	B = 5%	C = ?	D = .	E = 1%	F = 0%
Compound: CCOC(=O)C1=CCN(S(=O)(=O)c2ccc(F)cc2)C1c1ccc(Cl)c(Cl)c1 (stereo unspecified)
  A = -3%	B = .	C = .	D = .	E = .	F = .
Compound: COc1cccc2c1C(=O)c1c(O)c3c(c(O)c1C2=O)C[C@@](O)(C(=O)CO)C[C@@H]3O[C@H]1C[C@H](N)[C@H](OC2CCCCO2)[C@H](C)O1 (stereo partly specified)
  A = -1%	B = .	C = .	D = .	E = .	F = .
Compound: COc1cccc2c1C(=N)c1c(O)c3c(c(O)c1C2=O)CC(O)(C(C)=O)CC3OC1CC(N)C(O)C(C)O1 (stereo unspecified)
  A = 1%	B = -1%	C = ?	D = .	E = 9%	F = ?
Compound: CCCCC(=O)OCC(=O)C1(O)Cc2c(O)c3c(c(O)c2C(OC2CC(NC(=O)C(F)(F)F)C(O)C(C)O2)C1)C(=O)c1c(OC)cccc1C3=O (stereo unspecified)
  A = 3%	B = -2%	C = 9.2µM*	D = .	E = 1%	F = ?
Compound: COc1cccc2c1C(=O)c1c(O)c3c(c(O)c1C2=O)CC(O)(C(C)=O)CC3OC1CC(O)C(O)C(C)O1 (stereo unspecified)
  A = -9%	B = 3%	C = 10µM*	D = .	E = 10%	F = ?
Compound: CC(=O)N1c2ccc(S(=O)(=O)NCc3ccc(Cl)cc3)cc2CC1C (stereo unspecified)
  A = -2%	B = 0%	C = .	D = 2%	E = .	F = 4%
Compound: CC(=O)N1c2ccc(S(=O)(=O)NCCc3cccc(C)c3)cc2CC1C (stereo unspecified)
  A = -1%	B = 4%	C = 13µM*	D = 9%	E = .	F = -1%
Compound: CCC(=O)N1c2ccc(S(=O)(=O)NCCc3ccccc3)cc2CC1C (stereo unspecified)
  A = -3%	B = -1%	C = 23µM*	D = 0%	E = -3%	F = -9%
Compound: Cc1ccc(Cl)cc1N1CCN(C(=O)c2cn(C3CCCCC3)c(=O)c3c2c2ccccc2n3C)CC1
  A = -16%	B = -1%	C = -6%	D = 2%	E = .	F = -3%
Compound: O=C(Cc1cccs1)Nc1ccc(F)c(S(=O)(=O)N2CCOCC2)c1
  A = 0%	B = 0%	C = -4%	D = .	E = 58%	F = 9%
Compound: C=CCc1cccc2cc(C(=O)O)c(=O)oc12
  A = -19%	B = 2%	C = -16%	D = -8%	E = 3%	F = -3%

# Entries listed above printed as active in ClpP mod:
canonical_smiles	ClpP mod	Nrf2 inh	miR-21 reporter	TCR act
COc1ccc(CNC(=O)c2cc3c(=O)n(Cc4cccs4)ccc3nc2C)cc1	14µM*	?	29%	.
COc1ccc(CNC(=O)c2cc3c(=O)n(Cc4cccnc4)ccc3nc2C)cc1	25µM*	-27%	-1%	.
Cc1ccc(CNC(=O)c2cc3c(=O)n(Cc4cccnc4)ccc3nc2C)cc1	28µM*	-22%	10%	.

# (continued)
# Abbreviations – A = ClpP mod; B = Nrf2 activator; C = Nrf2 inh; D = miR-21 reporter; E = TCR act; F = A549 viability
Compound: C=CCc1cccc2cc(C(=O)NC)c(=O)oc12
  A = 22µM*	B = 0%	C = .	D = -4%	E = -9%	F = -1%
Compound: O=C(NC(c1ccc(Cl)cc1)c1ccsc1)C1CCN(Cc2cccc(Cl)c2)CC1 (stereo unspecified)
  A = 2%	B = 0%	C = .	D = .	E = .	F = .
Compound: CCc1ccc(-n2c(=O)c3c4c(sc3n(Cc3ccccc3C#N)c2=O)CCCC4)cc1
  A = 0%	B = 0%	C = 21%	D = -7%	E = .	F = -6%
Compound: O=C(NC(=S)Nc1ccccc1N1CCN(C(=O)c2ccccc2)CC1)c1ccccc1F
  A = 32µM*	B = 6%	C = ?	D = 14%	E = -5%	F = -6%
Compound: CCOC(=O)c1c(O)c2ccccc2n(C)c1=O
  A = .	B = 3%	C = 0%	D = 5%	E = -1%	F = -1%
Compound: CCCn1c(=O)c(C(=O)NCc2ccccc2)c(O)c2ccccc21
  A = .	B = 0%	C = -1%	D = -9%	E = 5%	F = -10%
Compound: Cn1c(=O)c(Cc2ccccc2)c(O)c2ccccc21
  A = 25µM*	B = 0%	C = 8%	D = -2%	E = -10%	F = 5%
Compound: CCCn1c(=O)c(Cc2ccccc2)c(O)c2ccccc21
  A = 28µM*	B = 0%	C = .	D = 1%	E = -6%	F = 0%
Compound: CCCCCOC(=O)Cc1c(O)c2ccccc2n(C)c1=O
  A = 28µM*	B = 0%	C = 7%	D = 4%	E = 1%	F = -1%
Compound: CCCc1c(O)c2ccccc2n(-c2ccccc2)c1=O
  A = 5.6µM*	B = 0%	C = .	D = -5%	E = -2%	F = -1%
Compound: Cc1ccc(Cn2ccnc2SCC(=O)Nc2nnc(C)s2)cc1
  A = 0%	B = -1%	C = .	D = 5%	E = .	F = -10%
Compound: CCCCCn1c(=O)c(Cc2ccccc2)c(O)c2ccccc21
  A = 14µM*	B = 0%	C = -8%	D = 2%	E = -1%[46.1 µM]	F = 3%
Compound: Oc1ccccc1/C=N/n1c(COc2ccccc2)n[nH]c1=S
  A = 35µM*	B = 0%	C = -10%	D = -1%	E = 3%	F = 0%
Compound: O=c1c2ccccc2nc(COc2ccccc2)n1/N=C/c1ccc(O)cc1O
  A = 10%	B = -1%	C = 26µM*	D = 4%	E = -2%	F = -10%
Compound: Cc1cc(NC(=O)c2ccc([N+](=O)[O-])cc2)n(C)n1
  A = .	B = 0%	C = 2%	D = -9%	E = -2%	F = -6%
Compound: Cc1ccccc1-c1cnc(C(O)c2cccc(C)c2C)[nH]1 (stereo unspecified)
  A = -3%	B = 3%	C = .	D = .	E = .	F = .
Compound: CSc1ccc(S(=O)(=O)Nc2ccc3c4c(cccc24)CC3)cc1
  A = -1%	B = 0%	C = 18µM*	D = 1%	E = -2%	F = ?
